Measured values published in patent publication US20160281133A1, “STABILIZATION AND ISOLATION OF EXTRACELLULAR NUCLEIC ACIDS” (QIAGEN GMBH, priority 2013, published 2016).

Test system: whole blood samples
Experiment: 18S DNA duplex real time PCR assay, increase of DNA in plasma of stored blood, example 5
Assay type: cell-based, human
Conditions: DMAA added to whole blood; within 3 days of storage

Compound: CC(=O)N(C)C [DMAA, N,N-dimethylacetamide]
- increase of cell-free DNA: Only a minor increase of cell-free DNA
